Measurements as given in patent publication US4843066A, “Novel adenosine derivatives and pharmaceutical composition containing them as an active ingredient” (priority 1986, dated 1989).

Assay: in vivo
Details: mouse, oral, in 0.5% C.M.C., ddY male mice, death rate for 7 days

`CNc1ncnc2c1ncn2[C@@H]1O[C@H](CO)[C@@H](O)[C@H]1OC` [Compound 17, N^6-2'-O-dimethyladenosine] gave an LD50 at 168 h of 1000 to 2000 mg/kg.
